Source: ChEMBL document CHEMBL6114970, “Development of carbazole-based molecules for inhibition of mutant hSOD1 protein aggregation in Amyotrophic Lateral Sclerosis” (Bioorg Med Chem, 2025)

Organism: Homo sapiens
Assay: Inhibition of TCEP-treated human SOD1 G93A mutant aggregation at 50 uM measured after 24 hrs by thioflavin-T fluorescence assay relative to control

inhibition: 73.5%
Compound: COc1cc(/C=C/C(=O)CC(=O)/C=C/c2ccc(O)c(OC)c2)ccc1O [CURCUMIN]
